Biological target: Tissue-type plasminogen activator (Homo sapiens, UniProt P00750)
Assay: The clot-lysis test system configures the kinetics of clot formation and degradation in vitro and allows quantifying modulation of the process by selected test compounds.The test compounds were dissolved in 1% acetic acid and further complemented with an equal volume of DMSO. The resulting stock solutions were serially diluted in 0.5% acetic acid/50% DMSO. 1 μL aliquots of these solutions were placed into 384 well microplates (Greiner, black, transparent bottom), followed by 30 μL of diluted human citrated plasma (platelet-poor, final concentration: 5%; supplemented with fibrinogen, final concentration: 3 μM; dilution buffer: 20 mM HEPES, 150 mM NaCl, 0.01% Brij (pH 7)). The reactions were started by addition of 20 μL of CaCl2 (final concentration: 10 mM), and tPA (tissue plasminogen activator, final concentration: 0.2 nM) in dilution buffer, followed by an additional volume of 20 μL dilution buffer for improved mixing. The reactions were incubated at 37° C. […] IC50 values were determined by comparing the resulting time courses with the time course of a blank control reaction.

Chains of the proteins cited; added tags and fusions are not shown.
UniProt P00750, whole entry: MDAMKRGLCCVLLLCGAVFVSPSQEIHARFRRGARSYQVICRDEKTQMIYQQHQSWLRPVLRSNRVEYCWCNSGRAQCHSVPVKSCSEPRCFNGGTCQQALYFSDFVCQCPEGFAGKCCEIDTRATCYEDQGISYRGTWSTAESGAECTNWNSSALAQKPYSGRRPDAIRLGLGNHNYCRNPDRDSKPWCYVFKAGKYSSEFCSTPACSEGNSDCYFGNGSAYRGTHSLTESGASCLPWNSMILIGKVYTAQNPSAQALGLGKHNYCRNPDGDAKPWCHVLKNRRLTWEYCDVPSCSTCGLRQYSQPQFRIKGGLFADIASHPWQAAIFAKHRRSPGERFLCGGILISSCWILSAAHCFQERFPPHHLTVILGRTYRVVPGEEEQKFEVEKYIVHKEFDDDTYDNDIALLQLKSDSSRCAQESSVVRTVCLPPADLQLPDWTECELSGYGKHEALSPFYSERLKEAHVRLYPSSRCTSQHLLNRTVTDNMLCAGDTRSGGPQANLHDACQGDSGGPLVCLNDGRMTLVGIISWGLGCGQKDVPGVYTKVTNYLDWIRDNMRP

IC50	Compound
0.034 µM	CCCn1ccnc1CNC(=O)c1cnn2c(C3CCNCC3)cc(=O)[nH]c12 [US10118930, Example 84]
0.04 µM	O=c1cc(C2CCNCC2)n2ncc(-c3nc(-c4ccc(C(F)(F)F)cc4F)no3)c2[nH]1 [US10118930, Example 135]
0.03 µM	O=c1cc(C2CCNCC2)n2ncc(-c3noc(Cc4ccc(OC(F)(F)F)cc4)n3)c2[nH]1 [US10118930, Example 239]
0.031 µM	O=c1cc(C2CCNCC2)n2ncc(-c3nc(-c4ccccc4C(F)(F)F)no3)c2[nH]1 [US10118930, Example 260]

From BindingDB's records for patent US10118930 (Bayer Pharma Aktiengesellschaft, 2018)
